The record followed here is EP0452101B1 (dated 1991).

The test has as its target muscarinic receptors. Description: (-)3H-QNB binding to rat cerebral cortex homogenates with and without Cu++ treatment.
Setting [1] is: read-out: KH, with Cu++ pretreatment (100 µM, 30 minutes).
Setting [2] is: read-out: KL, with Cu++ pretreatment (100 µM, 30 minutes).
[3] abbreviates: read-out: KL, without pretreatment.

Like-named read-outs stand apart in the source and are kept apart here.

For `C[N+](C)(C)CCOC(N)=O` [Carbachol], the Ki under setting [1] turned out to be 110 ± 10 nM; the Ki (read-out: KH, without pretreatment) worked out at 893 ± 70 nM; the Ki under setting [2] amounted to 17500 ± 3200 nM; the Ki under setting [3] worked out at 27000 ± 700 nM. Further, the “%H (% of high affinity state)” value reads like this: (with Cu++ pretreatment (100 µM, 30 minutes)) 44%; (with Cu++ pretreatment (100 µM, 30 minutes), listed as 1) 44±3%; (without pretreatment) 25%; (without pretreatment, listed as 1) 25±1%.
For `CC1OC2(CS1)CN1CCC2CC1` (stereo not drawn) [AF102B, cis-2-methylspiro(1,3-oxathiolane-5',3)quinuclidine, reference compound], the Ki by setting is: under setting [1], 20 nM; under setting [2], 3000 ± 10 nM; under setting [3], 3300 nM.
